Measurements as given in patent publication US6495578B1, “Sulfonamide derivatives having oxadiazole rings” (Shionogi & Co., Ltd., priority 1999, dated 2002).

By UniProt entry, the sequences of proteins in these tests, tags left out. Residues count along the entry.
UniProt P08253, 110-660 limits assumed: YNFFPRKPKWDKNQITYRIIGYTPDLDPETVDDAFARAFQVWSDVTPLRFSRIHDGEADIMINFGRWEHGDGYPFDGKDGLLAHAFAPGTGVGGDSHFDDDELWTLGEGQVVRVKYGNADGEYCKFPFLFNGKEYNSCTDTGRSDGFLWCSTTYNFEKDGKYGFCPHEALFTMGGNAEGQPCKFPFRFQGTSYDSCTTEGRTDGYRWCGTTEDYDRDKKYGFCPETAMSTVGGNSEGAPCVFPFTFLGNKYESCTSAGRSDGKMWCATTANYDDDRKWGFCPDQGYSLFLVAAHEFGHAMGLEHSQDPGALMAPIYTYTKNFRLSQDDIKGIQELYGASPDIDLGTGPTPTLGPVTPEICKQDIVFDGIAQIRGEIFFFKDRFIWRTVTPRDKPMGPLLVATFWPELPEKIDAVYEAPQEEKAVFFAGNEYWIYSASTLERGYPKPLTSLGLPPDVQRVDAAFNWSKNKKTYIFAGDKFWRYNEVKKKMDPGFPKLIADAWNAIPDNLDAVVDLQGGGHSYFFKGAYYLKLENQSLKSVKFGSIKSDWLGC

Molecular target: MMP-2 (Homo sapiens, UniProt P08253)
Assay: Assay for inhibitory activities on MMP-2 (fluorogenic coumarin-labelled peptide substrate)
Assay type: biochemical
Conditions: MMP-2 purchased from Calbiochem-Novabiochem; substrate MOCAc-Pro-Leu-Gly-Leu-A2Pr(DNP)-Ala-Arg-NH2

Row | SMILES | IC50 [µM]
1 | O=C(O)CNS(=O)(=O)c1ccc(-c2noc(-c3ccc(F)cc3)n2)cc1 | 0.181
2 | O=C(O)CNS(=O)(=O)c1ccc(-c2noc(-c3ccc(Br)cc3)n2)cc1 | 0.0534
